Antibody variant affinities, Ab-14 light chain, assay B

The target is the same throughout: PDVDLGDISGINAS, from the HR2 region of SARS-CoV-2 spike.

Parent scFv Ab-14: VH joined to VL by three GGGGS repeats. Changes lie in the light chain CDRs alone.
VH: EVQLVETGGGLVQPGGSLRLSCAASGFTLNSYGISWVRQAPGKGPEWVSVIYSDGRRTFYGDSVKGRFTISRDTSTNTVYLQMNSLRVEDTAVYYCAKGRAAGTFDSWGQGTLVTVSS
VL: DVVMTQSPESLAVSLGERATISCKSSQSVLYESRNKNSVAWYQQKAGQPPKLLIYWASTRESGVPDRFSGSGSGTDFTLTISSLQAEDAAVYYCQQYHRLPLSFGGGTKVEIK

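The starting antibody came from a phage panning campaign against this peptide. This is the validation round: designs drawn from the data on random variants, tested in the same kind of assay. Several design methods are mixed in this list. The scFvs were displayed on barcoded MATa yeast, the peptide on MATalpha yeast. Pairs that bind mate more often; barcode pairs of the diploids are counted by sequencing. Each replicate has its own calibration line, from reference interactions of the BCL2 family. Each pool was mated in six replicate cultures.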

Each variant is given by its three light chain CDRs, as the data file delimits them; those of the parent are KSSQSVLYESRNKNSVA, WASTRES, QQYHRLPLS. Numbers give log10(Kd / nM), so 0 is 1 nM and 3 is 1 µM. Smaller is tighter. Averages over replicates are reported, and they cover detected replicates only. "ND" means that the variant was in the library but no mating with the target was seen in that replicate; the authors take this as a sign of poor binding, and no number exists. Order: sorted from the lowest average up, undetected variants last.

| CDR-L1 | CDR-L2 | CDR-L3 | log10 Kd (nM) by replicate | mean, log10 nM | control signals |
|---|---|---|---|---|---|
| KLEQSQLYESRNKNAVA | NASQRES | QQYHRLPLS | -0.17 -0.24 -0.49 -0.43 -0.42 -0.30 | -0.34 | 0/18 |
| KLSQSVLYESRNKNNVA | SASTRMS | QQYHRLPLS | -0.12 -0.37 -0.21 -0.29 -0.39 -0.37 | -0.29 | 0/18 |
| AFSESANYGQRDSNAIA | GADVVAK | QQYWRLPLT | -0.14 -0.09 -0.29 -0.39 -0.33 -0.14 | -0.23 | 1/18 (1.70) |
| HLADTVMQGSYYRNSVA | QESTRAD | QQYHRLPLS | 0.08 -0.24 -0.21 -0.47 -0.48 -0.01 | -0.22 | 2/18 (2.93) |
| HQSSSVLYESRNKNSVA | NGSTREV | QQYHRLPLS | -0.05 -0.17 -0.13 -0.53 -0.26 -0.18 | -0.22 | 2/18 (2.71) |
| KLEQQWEYESRNSNNVA | AASTRSD | QQYHRLPLS | 0.02 -0.25 -0.22 -0.44 -0.35 -0.04 | -0.21 | 1/18 (2.32) |
| KLSQSVLMESRNKNSVA | SASTRES | QQYHRLPLS | -0.04 -0.24 -0.30 -0.15 -0.38 -0.13 | -0.21 | 0/18 |
| NFSQSWLYESRNKNSVA | GGNTRES | QQYHRLPLS | -0.39 -0.43 -0.03 -0.35 -0.05 0.09 | -0.19 | 1/18 (1.69) |
| KLSQSVLYEERNKNSVA | GASTRES | QQYHRLPLS | 0.00 -0.18 -0.22 -0.34 -0.06 -0.14 | -0.16 | 0/18 |
| KVQQSVPYEDRNKNSVA | HASTRCS | QDYHRLPLS | 0.04 0.00 -0.15 -0.35 -0.23 0.01 | -0.11 | 0/18 |
| KLSQSVLYEGRTKNSVA | NASTRES | QQYHRLPLS | 0.13 -0.06 -0.11 -0.40 -0.03 -0.13 | -0.10 | 1/18 (3.98) |
| KLSQSWLYESRNKNSVA | GASLRES | QQYHRLPLS | 0.08 -0.22 -0.26 -0.20 0.04 -0.02 | -0.10 | 1/18 (2.97) |
| KLDQSQLYESRNKQSVA | NASQRCS | QQYHRLPLS | -0.16 0.17 -0.10 -0.29 0.00 0.05 | -0.05 | 2/18 (2.55) |
| KLSALFYKESKNKNNVA | EMTTRGS | QQYDRLPLS | -0.16 0.06 -0.09 -0.27 0.21 -0.08 | -0.05 | 0/18 |
| KYSQSDEYESRNFNSVA | NASTRSH | QQYHRLPLS | -0.01 0.08 0.00 -0.27 -0.08 0.04 | -0.04 | 0/18 |
| KLSQSWLYESRNKNSVA | QASTRES | QDYHRLPLS | 0.25 -0.03 -0.09 -0.22 -0.04 0.08 | -0.01 | 1/18 (2.40) |
| KVSMSELYESRNKNSVA | EASTRES | QQYHRLPLS | 0.08 0.07 -0.04 0.06 -0.11 0.09 | 0.02 | 1/18 (2.81) |
| KLSFGNLYESRNQNSVA | EASTRLQ | QQYHRLPLS | 0.28 0.00 -0.03 -0.19 -0.06 0.18 | 0.03 | 1/18 (3.87) |
| KQSQSVLYEEVNKNSVA | DASTRES | QQYHRLPLS | 0.51 -0.12 0.13 0.02 -0.08 0.36 | 0.14 | 0/18 |
| KIWGSYLGESRNWNAVA | NASQREQ | QQYHRLPLS | 0.26 0.27 0.12 0.09 -0.01 0.32 | 0.18 | 1/18 (2.70) |
| KSSQSVLTESRNKNSVA | DASTRES | QQYHRLPLS | 0.34 0.13 0.11 0.03 0.05 0.20; 0.37 0.20 0.19 0.29 -0.14 0.81 | 0.21 | 2/36 (2.62) |
| SLMQVGGYESNNKDSIA | DLRTRES | QQYHRLPLS | 0.42 0.35 0.16 0.18 -0.06 0.29 | 0.22 | 0/18 |
| KMSQSMLYESRASNSVA | NASNRES | QQYHRLPLS | -0.01 0.30 0.25 0.20 0.54 0.14 | 0.24 | 0/18 |
| SVSGFMKTLSAHRNSVA | DMTNRED | QQYDRLPLS | 0.48 0.34 0.30 0.13 0.32 0.16 | 0.29 | 3/18 (2.99) |
| HLSINMPQQHYMYDSIA | HSDRREA | QQYYRLPLA | 0.20 0.35 -0.02 0.47 0.43 0.58 | 0.34 | 1/18 (3.26) |
| KVSNQADYEDRMKNSVA | SASTRES | QQYHRLPLS | 0.27 0.63 0.36 0.27 0.22 0.34 | 0.35 | 1/18 (2.51) |
| KLSQSFLYESRNKNSVA | NASTREE | QQYHRLPLS | 0.56 0.30 0.31 0.15 0.33 0.74 | 0.40 | 2/18 (3.25) |
| KLSQEVLMGDRNKNSVA | KASQRLS | QQYHRLPLS | 0.49 0.41 0.38 0.35 0.46 0.54 | 0.44 | 3/18 (3.10) |
| KSSQSVLYESNNKNSVA | WASTRET | QQYTRLPLT | ND 0.46 ND ND ND ND | 0.46 | 0/18 |
| KFSQSVGYESRNKNSVA | NAQTRMD | QQYHRLPLS | 0.49 0.59 0.46 0.61 0.36 0.27 | 0.46 | 0/18 |
| QLEQDQFPMGKGWHSIA | NATTLVA | QQYYYLPLA | 0.47 0.63 0.55 0.29 0.37 0.59 | 0.48 | 1/18 (2.99) |
| KLSQSELYESRNKNSVA | HASTRMS | QQYHRLPLS | 0.70 0.47 0.46 0.42 0.46 0.48 | 0.50 | 0/18 |
| KSSQSVLYETRNKNHVA | AASTRES | QQYHRLPLS | 1.08 0.35 0.25 0.22 0.22 1.19 | 0.55 | 1/18 (1.67) |
| KQSQSVLYESRNKNSVA | DASTRES | QQYHWLPLS | 0.91 0.70 0.48 0.54 1.00 0.83 | 0.74 | 1/18 (1.47) |
| SLQYLEEESLIGASAIA | DVNIAVM | QQYSRLPLA | 0.90 0.65 0.87 0.86 0.54 0.75 | 0.76 | 2/18 (3.07) |
| KSSQSGLYEERNKNSVA | QASTRES | QQYHRLPLS | 0.34 0.64 0.65 0.55 1.72 0.74 | 0.77 | 1/18 (2.10) |
| KSSQSFLYESRNVNSVA | GASTRLS | QQYHRLPLS | 1.12 0.59 0.48 0.98 1.15 0.58 | 0.82 | 0/18 |
| MLTIEGDETHEKAFSIA | NVTNKAY | QQYARLPLT | 0.97 0.71 0.89 0.82 1.16 0.96 | 0.92 | 3/18 (2.54) |
| KFSQSQLYESRNKNSVA | NASQRLS | QQYHRLPLS | 0.99 1.11 0.92 0.94 0.98 1.00 | 0.99 | 0/18 |
| KIYELGKGSIKTNNNIA | QTDIREL | QSYNRLPLS | 1.20 0.81 1.41 0.64 1.05 1.01 | 1.02 | 0/18 |
| KSSQSFLYEERYKNSVA | KASTRES | QQYHRLPLS | 0.80 1.18 1.00 0.87 1.66 0.89 | 1.07 | 1/18 (1.97) |
| HITMGMYVKGRYHSSIA | QAETRAK | QQYDRLPLI | 1.03 1.12 ND ND ND ND | 1.07 | 0/18 |
| KMSQSVLYESDNKNSVA | WASTRIS | QQYHRLPLS | 1.27 0.93 0.89 1.03 2.03 0.75 | 1.15 | 0/18 |
| KVSQSVLYESNNKFSVA | WASTRES | QQYHRLPLS | 1.27 0.91 ND 1.41 1.05 2.15 | 1.36 | 1/18 (1.54) |
| NVRDSLGYEQNVGSAVA | ETSQVED | QQYYTLPLA | 1.69 1.39 1.42 1.58 1.32 1.26 | 1.44 | 0/18 |
| KIRVHNLMFYQNENSIA | GQSNRIE | QQYYHLPLT | 1.93 1.26 1.51 1.38 1.34 1.25 | 1.45 | 1/18 (3.73) |
| TIGQMLMQGIRNRSNVA | EVSQRLN | QQYDRLPLA | 1.19 1.83 1.52 1.11 1.89 1.27 | 1.47 | 0/18 |
| KVSEFMRGLMKKQDSIA | DNVTRNN | QQYDRLPLS | 0.89 1.58 1.38 1.84 1.52 1.75 | 1.49 | 1/18 (2.53) |
| HVPNYTENFMSAKQNVA | DQSAKTS | QQYDRLPLA | 1.74 2.23 1.75 2.15 1.50 2.17 | 1.92 | 1/18 (2.81) |
| KLSQSVGYESRNKSRVA | DNSTRGS | QQYDRLPLS | 1.96 ND ND 2.16 2.93 ND | 2.35 | 2/18 (2.40) |
| KSSQSVLYEWRNKNSVA | QASTREV | QQYHRLPLS | ND 2.30 ND ND 2.33 3.52 | 2.71 | 0/18 |
| KQSQSVLLPSRNKNSVA | WASTREY | QQYHRLPLS | ND ND ND ND ND ND | ND | 0/18 |

The closing 4 entries, repeated:

CDR-L1	CDR-L2	CDR-L3	log10 Kd (nM) by replicate	mean, log10 nM	control signals
HVPNYTENFMSAKQNVA	DQSAKTS	QQYDRLPLA	1.74 2.23 1.75 2.15 1.50 2.17	1.92	1/18 (2.81)
KLSQSVGYESRNKSRVA	DNSTRGS	QQYDRLPLS	1.96 ND ND 2.16 2.93 ND	2.35	2/18 (2.40)
KSSQSVLYEWRNKNSVA	QASTREV	QQYHRLPLS	ND 2.30 ND ND 2.33 3.52	2.71	0/18
KQSQSVLLPSRNKNSVA	WASTREY	QQYHRLPLS	ND ND ND ND ND ND	ND	0/18

A sequence measured in both rounds can read differently, since the two assays cover different ranges. Nonspecific signal, from three strains lacking the peptide, appeared in 4% of pairings of all light chain designs, centred on 2.64 (5% of these signals below 1.59); values are not corrected for it. Also given: how often the same scFv was detected with the empty control strains, with their mean in brackets. Some sequences occur more than once in the pool; their replicates are listed entry by entry, parted by semicolons. The parent sequence was in this pool as ten entries: three were never detected, three once, and four in most replicates, with averages from 0.34 to 2.37. In the paper, a design with two or fewer of six values counts as a poor binder.

Values reported by Li et al. 2023, doi:10.1038/s41467-023-39022-2 (FLAb copy).